The record followed here is patent US20150253305A1, “METHODS OF IDENTIFYING COMPOUNDS FOR TREATING DEPRESSION AND OTHER RELATED DISEASES” (NORTHWESTERN UNIVERSITY, priority 2012, published 2015).

Series [1] deals with Schaffer collateral-CA1 synapses. Put plainly: Ex vivo LTP at Schaffer collateral-CA1 synapses. The settings on record: 24 hrs post dosing; GLYX-13 3 mg/kg IV, ketamine 10 mg/kg IV.
The test system of series [2] is Sprague-Dawley rats. Description: Open field locomotor activity (line crosses). As to conditions: ketamine 10 mg/kg SC; GLYX-13 10 mg/kg IV.

For the molecule `CNC1(c2ccccc2Cl)CCCCC1=O` (centres unmarked) [Ketamine, ketamine], in series [1], the “magnitude of ex vivo long-term potentiation (LTP) at Schaffer collateral-CA1 synapses” value is recorded as “enhances the magnitude of ex vivo long-term potentiation (LTP)”. In series [2], the “locomotor activity in the open field as measured by line crosses” value is “reduced locomotor activity”.
